Test results published in patent publication US20250099491A1, “PREVENTION OR TREATMENT OF CARDIOVASCULAR DISEASES WITH HIGH PENETRATION PRODRUGS OF ASPIRIN AND OTHER NSAIDS” (Techfields Inc., priority 2022, published 2025).

Tested on: patients with ischemic strokes
Assay: Phase 2 clinical study of spray in patients with ischemic strokes
Type: in vivo, human
Description: Each patient enrolled in Group A was administered the investigational drug in a double-blind manner for 16 weeks starting between 3 and 60 days after the onset of stroke symptoms (Day 1 of the study). The patients and/or their caregivers were instructed how to apply the investigational drug accurately so that patients or their caregivers would administer 20 sprays/dose of either the investigational drug or placebo twice daily (approximately every 12 hours) for a total daily dose of 280 mg of investigational drug. The 20 sprays of investigational drug were administered as follows: 4 sprays around the neck, 2 sprays to the left shoulder, 2 sprays to the right shoulder, 6 sprays to the chest, 3 sprays to the left leg, and 3 sprays to the right leg. Each spray was sprayed on a different area of the skin to reach maximum absorption. The patient would wait for at least 5 minutes to dress after the last spray so that the skin became completely dry.
Patients were asked to return to the study site at Weeks 4, 8, 12, and 16 for efficacy and safety assessments. After the Week 16 assessments had been performed, patients would start the open-label period of the study the next day and receive active treatment in an open-label manner through the end of the study (EOS) at Week 32. That is, patients who were receiving active treatment would continue to receive active treatment, and patients who were receiving placebo would switch to active treatment for the remaining 16 weeks of the study. Patients would receive only 1 dose of investigational drug on the Week 16 visit day. Patients would return to the study site at Week 24 and Week 32 (EOS) for efficacy and safety assessments. An Early Termination visit would occur if the patient was discontinued from the study prematurely. Patients would have a follow-up visit approximately 14 days after the Early Termination visit or the Week 32 (EOS) visit.
The spray bottle deposits […] of spray solution and 7 mg 2-(diethylamino)ethyl acetoxybenzoate free base per spray on the skin. Subjects were to apply each spray to a different skin area around the neck, chest, legs and arms based on the randomized dose level assigned.

CCN(CC)CCOC(=O)c1ccccc1OC(C)=O.Cl [Compound-1]
Barthel Index (5 Sprays (35 mg/dose bid), Week 4): 52.3 ± 11.4 | Barthel Index (5 Sprays (35 mg/dose bid), Week 8): 58.2 ± 11.3 | Barthel Index (5 Sprays (35 mg/dose bid), Week 16): 65.2 ± 10.1 | Barthel Index (5 Sprays (35 mg/dose bid), Week 24): 75.8 ± 8.8 | Barthel Index (5 Sprays (35 mg/dose bid), Week 32): 83.6 ± 6.8 | Barthel Index (5 Sprays (35 mg/dose bid), baseline): 48.4 ± 11.0 | Barthel Index (10 Sprays (70 mg/dose bid), Week 4): 58.9 ± 10.6 | Barthel Index (10 Sprays (70 mg/dose bid), Week 8): 75.3 ± 9.9 | Barthel Index (10 Sprays (70 mg/dose bid), Week 16): 92.2 ± 7.3 | Barthel Index (10 Sprays (70 mg/dose bid), Week 24): 96.9 ± 3.9 | Barthel Index (10 Sprays (70 mg/dose bid), Week 32): 99.0 ± 2.0 | Barthel Index (10 Sprays (70 mg/dose bid), baseline): 49.4 ± 11.8 | Barthel Index (20 Sprays (140 mg/dose bid), Week 4): 61.5 ± 12.0 | Barthel Index (20 Sprays (140 mg/dose bid), Week 8): 81.4 ± 9.7 | Barthel Index (20 Sprays (140 mg/dose bid), Week 16): 95.5 ± 5.7 | Barthel Index (20 Sprays (140 mg/dose bid), Week 24): 98.5 ± 2.9 | Barthel Index (20 Sprays (140 mg/dose bid), Week 32): 99.4 ± 1.6 | Barthel Index (20 Sprays (140 mg/dose bid), baseline): 50.3 ± 12.5
